This note sets out measurements from PubChem BioAssay (NCATS).

Sequences of proteins named here, by UniProt entry; tags and fusion partners are left off. Residues count along the entry.
UniProt O75604, whole entry: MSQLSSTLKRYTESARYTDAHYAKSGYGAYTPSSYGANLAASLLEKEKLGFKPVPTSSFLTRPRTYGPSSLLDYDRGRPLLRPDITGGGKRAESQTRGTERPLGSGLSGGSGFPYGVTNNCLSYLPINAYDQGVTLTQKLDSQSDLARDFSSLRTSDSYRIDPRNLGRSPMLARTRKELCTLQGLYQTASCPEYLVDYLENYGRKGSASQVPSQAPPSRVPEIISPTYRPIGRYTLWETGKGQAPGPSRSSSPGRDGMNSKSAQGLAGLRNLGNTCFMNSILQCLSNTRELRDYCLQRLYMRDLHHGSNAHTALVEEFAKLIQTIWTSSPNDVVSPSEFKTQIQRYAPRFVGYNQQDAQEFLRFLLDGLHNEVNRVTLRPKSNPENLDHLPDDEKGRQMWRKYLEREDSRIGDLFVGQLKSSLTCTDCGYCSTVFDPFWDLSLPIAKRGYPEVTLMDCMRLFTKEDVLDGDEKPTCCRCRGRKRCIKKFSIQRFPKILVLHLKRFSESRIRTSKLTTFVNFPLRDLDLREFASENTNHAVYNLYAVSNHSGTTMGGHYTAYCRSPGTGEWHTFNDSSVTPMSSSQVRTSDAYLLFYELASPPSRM
UniProt P07550, whole entry: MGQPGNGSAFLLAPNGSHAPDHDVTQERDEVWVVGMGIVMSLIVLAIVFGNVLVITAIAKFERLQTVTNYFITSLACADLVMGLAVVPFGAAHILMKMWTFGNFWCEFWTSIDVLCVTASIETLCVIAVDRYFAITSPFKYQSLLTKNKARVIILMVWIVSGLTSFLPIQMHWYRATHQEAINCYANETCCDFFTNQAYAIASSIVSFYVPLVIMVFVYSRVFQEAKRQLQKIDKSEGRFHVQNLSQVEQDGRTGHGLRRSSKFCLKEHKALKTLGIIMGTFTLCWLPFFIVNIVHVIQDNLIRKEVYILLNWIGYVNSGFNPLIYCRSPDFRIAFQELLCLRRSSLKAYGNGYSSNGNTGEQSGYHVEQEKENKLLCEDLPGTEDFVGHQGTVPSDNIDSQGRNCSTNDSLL
UniProt O89049, whole entry: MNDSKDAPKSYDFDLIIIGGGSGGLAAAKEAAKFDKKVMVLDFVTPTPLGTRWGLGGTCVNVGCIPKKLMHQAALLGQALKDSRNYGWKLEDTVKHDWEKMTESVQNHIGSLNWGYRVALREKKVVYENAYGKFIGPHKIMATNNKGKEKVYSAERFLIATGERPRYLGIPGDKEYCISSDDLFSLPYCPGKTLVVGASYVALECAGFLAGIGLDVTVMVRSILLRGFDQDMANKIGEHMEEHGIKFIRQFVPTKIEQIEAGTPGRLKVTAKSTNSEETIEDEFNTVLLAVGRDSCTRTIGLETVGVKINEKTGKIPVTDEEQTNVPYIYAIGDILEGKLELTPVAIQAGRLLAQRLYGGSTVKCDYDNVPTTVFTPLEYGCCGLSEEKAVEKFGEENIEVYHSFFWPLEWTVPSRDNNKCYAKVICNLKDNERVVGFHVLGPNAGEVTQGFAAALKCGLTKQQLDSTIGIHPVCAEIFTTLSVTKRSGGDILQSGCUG
UniProt Q99549, whole entry: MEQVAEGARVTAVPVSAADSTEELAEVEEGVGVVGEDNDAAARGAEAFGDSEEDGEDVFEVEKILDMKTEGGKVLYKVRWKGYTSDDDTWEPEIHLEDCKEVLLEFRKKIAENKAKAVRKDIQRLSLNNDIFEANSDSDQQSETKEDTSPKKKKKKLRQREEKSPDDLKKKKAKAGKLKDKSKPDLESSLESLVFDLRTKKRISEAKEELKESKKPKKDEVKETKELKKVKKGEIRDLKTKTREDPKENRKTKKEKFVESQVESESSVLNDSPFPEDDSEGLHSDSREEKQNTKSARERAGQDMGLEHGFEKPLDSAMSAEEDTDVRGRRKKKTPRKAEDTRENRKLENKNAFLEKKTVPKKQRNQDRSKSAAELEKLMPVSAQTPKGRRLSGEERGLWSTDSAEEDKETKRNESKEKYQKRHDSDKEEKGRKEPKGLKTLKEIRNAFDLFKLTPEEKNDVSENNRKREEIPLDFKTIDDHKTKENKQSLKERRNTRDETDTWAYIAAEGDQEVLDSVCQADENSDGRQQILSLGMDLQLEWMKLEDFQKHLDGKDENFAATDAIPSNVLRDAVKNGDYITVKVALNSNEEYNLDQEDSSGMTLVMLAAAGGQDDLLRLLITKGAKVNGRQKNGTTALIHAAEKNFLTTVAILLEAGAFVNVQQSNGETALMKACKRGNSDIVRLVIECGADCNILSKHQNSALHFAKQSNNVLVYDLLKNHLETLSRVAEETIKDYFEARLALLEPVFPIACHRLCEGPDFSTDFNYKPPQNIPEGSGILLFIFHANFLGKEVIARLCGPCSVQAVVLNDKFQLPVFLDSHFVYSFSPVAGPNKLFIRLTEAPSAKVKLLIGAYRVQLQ
UniProt P83916, whole entry: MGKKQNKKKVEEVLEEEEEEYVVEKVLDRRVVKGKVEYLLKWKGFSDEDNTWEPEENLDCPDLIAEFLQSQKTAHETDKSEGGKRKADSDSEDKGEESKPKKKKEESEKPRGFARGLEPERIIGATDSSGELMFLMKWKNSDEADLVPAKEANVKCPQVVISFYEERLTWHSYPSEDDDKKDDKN
UniProt Q6LX38, 1-543: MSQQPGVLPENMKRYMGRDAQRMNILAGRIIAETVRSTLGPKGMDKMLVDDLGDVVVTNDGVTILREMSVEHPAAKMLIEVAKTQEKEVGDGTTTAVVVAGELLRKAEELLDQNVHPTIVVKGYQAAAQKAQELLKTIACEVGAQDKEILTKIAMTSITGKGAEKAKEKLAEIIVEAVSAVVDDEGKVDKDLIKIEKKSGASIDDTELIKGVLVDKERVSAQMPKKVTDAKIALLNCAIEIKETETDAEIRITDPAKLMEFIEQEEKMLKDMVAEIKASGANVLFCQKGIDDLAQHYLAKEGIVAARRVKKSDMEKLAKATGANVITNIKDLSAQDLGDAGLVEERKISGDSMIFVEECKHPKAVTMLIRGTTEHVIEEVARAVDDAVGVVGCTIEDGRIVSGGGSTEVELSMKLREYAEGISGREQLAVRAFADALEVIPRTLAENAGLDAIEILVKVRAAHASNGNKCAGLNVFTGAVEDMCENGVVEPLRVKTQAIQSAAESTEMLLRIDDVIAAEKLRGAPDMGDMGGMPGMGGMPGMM
UniProt Q8NER1, whole entry: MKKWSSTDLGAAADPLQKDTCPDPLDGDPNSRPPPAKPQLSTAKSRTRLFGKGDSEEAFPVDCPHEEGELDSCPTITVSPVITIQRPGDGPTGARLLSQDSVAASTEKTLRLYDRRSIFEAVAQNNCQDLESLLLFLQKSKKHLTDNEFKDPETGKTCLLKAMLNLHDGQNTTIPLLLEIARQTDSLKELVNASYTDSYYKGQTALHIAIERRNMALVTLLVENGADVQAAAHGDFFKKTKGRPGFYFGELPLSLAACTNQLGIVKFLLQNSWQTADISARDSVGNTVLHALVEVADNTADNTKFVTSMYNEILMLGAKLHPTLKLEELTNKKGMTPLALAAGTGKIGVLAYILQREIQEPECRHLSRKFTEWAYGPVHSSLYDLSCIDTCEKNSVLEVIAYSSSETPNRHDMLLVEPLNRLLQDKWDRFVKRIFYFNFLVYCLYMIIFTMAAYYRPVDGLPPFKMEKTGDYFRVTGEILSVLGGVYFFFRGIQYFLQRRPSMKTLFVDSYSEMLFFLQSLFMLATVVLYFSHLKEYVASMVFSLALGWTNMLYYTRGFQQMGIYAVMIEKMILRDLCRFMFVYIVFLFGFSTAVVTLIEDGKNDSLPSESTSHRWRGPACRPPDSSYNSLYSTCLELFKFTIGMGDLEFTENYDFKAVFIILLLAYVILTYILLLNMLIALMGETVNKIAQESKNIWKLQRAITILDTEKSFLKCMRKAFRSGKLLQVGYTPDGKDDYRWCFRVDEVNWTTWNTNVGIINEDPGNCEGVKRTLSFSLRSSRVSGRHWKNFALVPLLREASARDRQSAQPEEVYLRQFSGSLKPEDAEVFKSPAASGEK
UniProt P21728, whole entry: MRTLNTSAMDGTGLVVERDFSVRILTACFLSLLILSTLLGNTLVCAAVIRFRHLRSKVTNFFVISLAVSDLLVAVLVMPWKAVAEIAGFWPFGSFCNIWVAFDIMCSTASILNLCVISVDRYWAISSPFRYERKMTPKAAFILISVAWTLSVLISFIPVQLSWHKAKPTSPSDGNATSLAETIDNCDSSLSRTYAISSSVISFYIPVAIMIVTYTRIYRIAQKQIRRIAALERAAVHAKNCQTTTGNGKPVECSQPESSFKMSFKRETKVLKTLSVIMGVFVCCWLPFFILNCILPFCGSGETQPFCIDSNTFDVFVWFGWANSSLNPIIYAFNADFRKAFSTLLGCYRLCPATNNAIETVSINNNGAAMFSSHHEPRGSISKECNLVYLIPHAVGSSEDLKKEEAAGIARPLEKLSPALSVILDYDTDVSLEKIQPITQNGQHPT

Several values for one entry are separate records, joined by “and”; a condition that tells them apart may be missing. Equal entries are not always repeated. This is a selection; strong and weak results do not stand in their true shares. Records with an inconclusive call do not appear. Activity calls are given as the source filed them. Unless noted, calls come from the whole dose curve; as a rule, active = well fitted curve in the direction sought with a large enough effect; inconclusive = small, poorly fitted or top-dose-only effect, or another doubt; inactive = no such curve, though single readings can be large; an effect the other way counts as inactive or inconclusive.

Test [1] is described as follows: Validation screen for small molecules that induce DNA re-replication in MCF 10A normal breast cells (AID 463097). Note: 0% is about no effect; nearly all actives have a fitted effect of over 60% in size. Particulars: MCF 10A cells, DNA re-replication phenotype imaging; at 46.1 µM (top of the series). The procedure, abridged: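 Read-out is Hoechst total nuclear intensity by fluorescence scanning imager, flagging increased high-DNA-content nuclei. Compounds were incubated with MCF 10A cells for 48 hr (37 C, 5% CO2) before 40 min staining.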

Test [2] has as its target Ubiquitin carboxyl-terminal hydrolase 2 (Homo sapiens) (UniProt O75604). Nature of the test: qHTS Validation Assay for Inhibitors of Ubiquitin-specific Protease USP2a Using CHOP2 as the Reporter (AID 463106).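 Note: plate controls were DMSO for no effect and full inhibition by NEM for full effect.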 The following applies: USP2a cleavage of CHOP2 reporter, enzymatic; at 38.3 µM (top of the series). Summed up: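 USP2 core (10nM final) was preincubated with compound for 30min at RT in 20mM Tris-HCl pH 8.0, 2mM CaCl2, 2mM beta-mercaptoethanol, 0.05% CHAPS. Ub-CHOP2 and reporter substrate (25nM each) were added, and fluorescence (Ex 485/Em 531nm) was read after 60min.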
In general terms: Quantitative high-throughput screening tests each substance at several concentrations.

Test [3] can be described thus: qHTS Validation Assay to Find Inhibitors of Chronic Active B-Cell Receptor Signaling (AID 485345; active = well fitted curve in the direction sought with a large enough effect in the main read-out, with a control signal flat, not every such curve was filed as active;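 note: 0% = untreated basal cells and 100% = 10 µM MG-132 proteasome inhibitor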). Particulars: ABC-DLBCL cells, chronic BCR signaling reporter, CBG luciferase; at 46.1 µM (top of the series). Summed up:
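TMD8 ABC-DLBCL cells with dox-inducible green luciferase–IκBα fusion and red native luciferase; compounds 46 uM–3 nM, 4 h at 37C with doxycycline in 0.5% FBS IMDM. Green/red ratio normalized to basal and 10 uM MG-132.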

Test [4] has as its target Beta-2 adrenergic receptor (Homo sapiens) (UniProt P07550). Nature of the test: qHTS validation assay of beta-arrestin-biased ligands of beta2-adrenergic receptor (AID 485366). Note: 0% is about no effect. The following applies: cell-based beta-arrestin recruitment to ADRB2, qHTS; at 46.1 µM (top of the series). An excerpt: NIH Molecular Libraries Probe Production Network [MLPCN]
NIH Chemical Genomics Center [NCGC]
PI: Bryan Roth and Bob Lefkowitz
The concept of biased agonism is an emerging concept of molecular pharmacology which proposes that seven transmembrane receptors (7TMRs) or G protein-coupled receptors (GPCRs), exist in multiple signaling conformations and complexes and that ligands (either agonists or antagonists) can induce signaling biased responses for distinct signal transduction cascades.
Furthermore, accumulating evidence over the last decade has drawn attention to a novel function of beta-arrestins as signal transducers that scaffold various signaling molecules upon activation of 7TMRs. […]
Tango cells were dispensed into white, solid, tissue-culture-treated 1536-well plates at 1500 cells/well in DMEM, containing 1% fetal bovine serum (FBS). […] Plates were then incubated for 15 minutes at room temperature, and subsequently measured on a ViewLux plate reader for luminescent signal using a clear filter with a 10 second exposure and 2x binning. The %Activity was determined from the corrected luminescence values.
Concentration-response curves were fitted to the signals arising from the resulting luminescence. […]
Keywords: biased agonism, beta2-AR, beta-arrestin, GPCR, 7TMR, Tango, luminescence, MLSMR, MLPCN, NIH Roadmap, qHTS, NCGC

Test [5] has as its target Thioredoxin reductase 1, cytoplasmic (Rattus norvegicus) (UniProt O89049). The test can be described thus: qHTS Assay for Substrates of Mammalian Selenoprotein Thioredoxin Reductase 1 (TrxR1) (AID 488772).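 Note: NADPH fluorescence in the first read after selenite addition and not the 8 min delta; 0% is about no effect; a drop in NADPH fluorescence below the no-compound background marks a TrxR1 substrate.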 The following applies: purified TrxR1, NADPH consumption substrate assay; at 57.1 µM (top of the series). Summed up: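 Quantitative HTS in Tris-HCl buffer at pH 7.5 with EDTA and Tween-20, using rat TrxR1, 400 uM NADPH and 400 uM selenite (final). A fall in initial NADPH fluorescence relative to background marked substrate behaviour.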

For test [6], the target named is M-phase phosphoprotein 8 (Homo sapiens) (UniProt Q99549). Nature of the test: qHTS Validation Assay for Inhibitors for MPP8 Chromodomain Interactions with Methylated Histone Tails (AID 488949). Note: potency is the fitted concentration of half-maximal effect; nearly all actives have a fitted effect of over 55% in size. The following applies: AlphaScreen MPP8 binding to H3K9me3 peptide. From the text:
As our understanding of epigenetics expands, it is becoming clear that players in this field are potential targets for drug development. This area of epigenetic therapy has established applications for the treatment of cancer and neurological diseases. We have been involved in this field for a number of years and have performed high-throughput screens to identify the first small molecule inhibitors of protein methyltransferases. These methyltransferases target multiple substrates, and thus regulate many arms of an epigenetic pathway. The methylation of different substrates often generates docking sites for effector proteins that harbor binding domains (chromo, tudor, PHD, MBT and ANK repeats). It has been proposed that the binding sites generated for different proteins by these post-translational modifcations mediate downstream effects on chromatin. Consistent with this theory, di- and tri-methylation of histone H3K9 facilitates the binding of heterochromatin protein HP1. The HP1 protein harbors a chromodomain that is responsible for the methyl-dependent interaction between HP1 and lysine 9 of histone H3. […] Low-affinity protein-protein interactions (Kd in the single- to double-digit micromolar range) such as those discussed here have been very difficult to assay by traditional techniques such as fluorescence polarization or fluorescence resonance energy transfer. […]

Test [7] concerns the target Chromobox protein homolog 1 (Homo sapiens) (UniProt P83916). Nature of the test: qHTS Validation Assay for Inhibitors of HP1-beta Chromodomain Interactions with Methylated Histone Tails (AID 488953). Note: potency is the fitted concentration of half-maximal effect; nearly all actives have a fitted effect of over 50% in size. Particulars: HP1-beta chromodomain / methylated histone peptide binding assay.
The target of test [8] is Methanococcus maripaludis chaperonin (MmCpn) (UniProt Q6LX38). The test can be described thus: High-Throughput Screening for Modulators of Cytosolic Chaperonin Activity: MmCpn Primary Screen (AID 488978).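 Note: 50 nM MmCpn enzyme hydrolysing 30 µM ATP at 37 °C; 0% is about no effect.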 The following applies: MmCpn chaperonin refolding activity, biochemical qHTS; at 76.9 µM (top of the series). Summed up:
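ATPase activity of 50 nM MmCpn was assayed with 30 uM ATP, 10 minutes at 37C, after a 5 min compound preincubation at room temperature. ADP production was read as HTRF emission at 590 and 665 nm.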

For test [9], the target named is Transient receptor potential cation channel subfamily V member 1 (Homo sapiens) (UniProt Q8NER1). Nature of the test: HTS Assay for Compounds that Act as Enhancers of the Vanilloid Receptor 1 (AID 488979). Note: 0% is about no effect. The following applies: TRPV1-expressing cells, enhancer of channel activity, stimulated with capsaicin at EC20; at 41.7 µM (top of the series). The procedure, abridged:
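TRPV1-expressing cells loaded with Fluo-8 calcium dye; compounds added and calcium influx read kinetically for 3 min (agonist phase), then capsaicin at EC20 added and read 2 min more for enhancement. Fluorescence ex 480/em 520 nm.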

Test [10] deals with D(1A) dopamine receptor (Homo sapiens) (UniProt P21728). The test can be described thus: HTS Assay for Allosteric Agonists of the Human D1 Dopamine Receptor: Primary Screen for Agonists (AID 488981). Note: 0% is about no effect. The following applies: D1 receptor-expressing cells, agonist cAMP readout; at 41.8 µM (top of the series). The procedure, abridged: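 Tetracycline-induced HEK293 T-REx cells force-coupled to calcium signalling were incubated overnight at 30 C and dye-loaded at room temperature. Calcium flux over 180 s after compound addition flagged agonists; a further 180 s read after EC20 dopamine flagged potentiators.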

On to `N#[O+].[C-]#N.[C-]#N.[C-]#N.[C-]#N.[C-]#N.[Fe+2].[Na+].[Na+]`, for which the re-replication induction in test [1] was inactive: -8.85%. Moreover, the activity, negative = inhibition in [2] was inactive: -1.29%. Also, in test [3], the activity change is inactive: 1.75%. Besides, the activation was inactive: 0.144% in test [4] and inactive: -0.74% in [10]. Besides, the activity change, negative = NADPH consumption in test [5] is inactive: -10.9%. Further, the Potency in test [6] was active: 10 µM and active: 8.44 µM; in [7], active: 35.5 µM. Moreover, the activity change, negative = inhibition in test [8] was inactive: 0.502%. For the same compound, the activity change, positive = enhancement in test [9] is inactive: -2.64%.
